Test results published in ChEMBL document CHEMBL1135424, “Beta-aryl-succinic acid hydroxamates as dual inhibitors of matrix metalloproteinases and tumor necrosis factor alpha converting enzyme” (J Med Chem, 2002).

Sequences of proteins named here, by UniProt entry; tags and fusion partners are left off. A change or cut given only in a name is not applied to a line headed by its entry.
UniProt P78536: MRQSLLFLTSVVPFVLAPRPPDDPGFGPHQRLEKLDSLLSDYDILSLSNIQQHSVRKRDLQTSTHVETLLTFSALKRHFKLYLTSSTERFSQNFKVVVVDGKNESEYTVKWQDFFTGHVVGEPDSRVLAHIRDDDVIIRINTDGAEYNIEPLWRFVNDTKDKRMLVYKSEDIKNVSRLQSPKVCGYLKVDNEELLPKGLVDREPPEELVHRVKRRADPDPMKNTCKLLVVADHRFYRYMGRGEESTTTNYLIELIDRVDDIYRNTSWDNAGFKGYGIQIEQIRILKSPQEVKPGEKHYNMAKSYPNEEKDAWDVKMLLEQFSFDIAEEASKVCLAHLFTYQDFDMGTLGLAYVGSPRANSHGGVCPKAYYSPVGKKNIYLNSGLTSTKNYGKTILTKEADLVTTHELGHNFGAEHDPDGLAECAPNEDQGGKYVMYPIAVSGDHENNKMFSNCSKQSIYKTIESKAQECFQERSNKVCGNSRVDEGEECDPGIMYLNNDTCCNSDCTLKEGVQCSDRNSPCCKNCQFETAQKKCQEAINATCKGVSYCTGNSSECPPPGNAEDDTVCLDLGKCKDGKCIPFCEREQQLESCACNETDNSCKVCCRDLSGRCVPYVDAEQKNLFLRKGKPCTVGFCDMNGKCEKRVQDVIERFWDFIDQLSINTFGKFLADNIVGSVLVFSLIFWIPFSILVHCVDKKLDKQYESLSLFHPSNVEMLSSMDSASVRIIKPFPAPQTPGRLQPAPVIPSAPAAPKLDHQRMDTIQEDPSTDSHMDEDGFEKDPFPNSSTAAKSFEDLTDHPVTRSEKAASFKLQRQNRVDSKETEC

Molecular target: Disintegrin and metalloproteinase domain-containing protein 17 (Homo sapiens, UniProt P78536)
Experiment: Inhibitory potency against Tumor necrosis factor alpha converting enzyme (TACE)

Work on CNC(=O)[C@@H](NC(=O)[C@H](CC(C)C)[C@H](O)C(=O)NO)C(C)(C)C yielded a Ki of 6.3 nM.
